Assay results from PubChem BioAssay AID504326 (The Scripps Research Institute Molecular Screening Center, 2011).
The list shows a part of the results, in another mix than the full data. Calls of active or inactive are those of the source. Cut-off read from the data, not from the text of the source: active = activation above about 18%; inactive = the rest.

By UniProt entry, the sequences of proteins in these tests, tags left out.
UniProt P35372, whole entry, looked up: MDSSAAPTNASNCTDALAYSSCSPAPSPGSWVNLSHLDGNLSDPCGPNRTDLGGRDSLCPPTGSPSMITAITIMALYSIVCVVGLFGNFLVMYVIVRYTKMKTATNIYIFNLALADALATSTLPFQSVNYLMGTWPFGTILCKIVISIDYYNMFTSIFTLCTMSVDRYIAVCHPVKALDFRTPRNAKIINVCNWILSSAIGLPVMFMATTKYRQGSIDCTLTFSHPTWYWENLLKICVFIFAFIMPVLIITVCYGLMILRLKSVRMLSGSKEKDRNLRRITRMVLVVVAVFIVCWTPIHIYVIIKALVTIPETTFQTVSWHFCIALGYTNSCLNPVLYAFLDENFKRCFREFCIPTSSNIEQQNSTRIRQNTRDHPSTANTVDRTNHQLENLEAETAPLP
UniProt P41143, whole entry, looked up: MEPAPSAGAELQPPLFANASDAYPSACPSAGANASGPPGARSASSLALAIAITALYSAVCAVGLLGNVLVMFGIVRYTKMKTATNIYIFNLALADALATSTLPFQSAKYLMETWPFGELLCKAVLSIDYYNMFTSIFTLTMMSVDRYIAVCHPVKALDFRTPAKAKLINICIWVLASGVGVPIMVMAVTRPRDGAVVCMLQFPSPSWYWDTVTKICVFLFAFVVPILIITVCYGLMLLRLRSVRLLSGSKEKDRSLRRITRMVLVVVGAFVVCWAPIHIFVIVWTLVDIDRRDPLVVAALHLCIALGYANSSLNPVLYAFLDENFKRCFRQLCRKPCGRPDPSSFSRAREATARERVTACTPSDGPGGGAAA

What follows are molecules tested against Mu-type opioid receptor (Homo sapiens) + Delta-type opioid receptor (Homo sapiens) (UniProt P35372+P41143) (assay: agonists of OPRM1-OPRD1 heterodimerization, primary screen, cell-based, luminescence (AID 504326;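 note: 0% = vehicle-treated cells and 100% = reference agonist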)). Details: cells, at 9.3 µM, active compounds read high.
For `Clc1ccc(N2CCN(Cc3c[nH]c4ncccc34)CC2)cc1`, the activation was inactive: 1.33%. With `Cc1ccc2c(c1)C1CN(C)CCC1N2C(=S)NC(=O)c1ccc(Cl)cc1Cl` (configuration not stated) the activation was inactive: -3.56%. With `O=C(Cn1c(=O)n(CC(=O)NCc2ccccc2)c2ccccc21)NCc1ccccc1` the activation was inactive: -0.54%. With `CC(/C=N\NC(=O)Cn1c(C)nc2ccccc21)=C\c1ccccc1` the activation was inactive: 0.41%. With `CCCC(=O)Nc1ccc2c(c1)nc1n2CCN(CCOC)C1` the activation was inactive: -4.4%. `Cc1ccc(C)c(Cn2c(=O)c3c(nc4n3CCN4Cc3ccco3)n(C)c2=O)c1` was tested, and the activation was inactive: -2.8%. With `CCOC(=O)CSc1nc2ccccc2n1CC(=O)N(C(C)C)C(C)C` the activation was inactive: -3.29%. With `O=S(=O)(c1ccccc1)N1CCn2c(nc3ccccc32)C1` the activation was inactive: 0.29%. With `Cn1c(=O)c2c(ncn2CC(=O)N2CCN(C(=O)c3ccco3)CC2)n(C)c1=O` the activation was inactive: -4.41%. For `O=C1NCN(c2ccccc2)C12CCNCC2`, the activation was inactive: 0.77%. For `COc1ccc(NS(=O)(=O)c2cc(NC(=O)Cn3cnc4c3c(=O)n(C)c(=O)n4C)ccc2C)cc1`, the activation was inactive: -2.28%. `Cn1c(=O)c2c(ncn2CCNC2=NCCCCC2)n(C)c1=O` was tested, and the activation was inactive: -2.21%. `CC(C)NC(=O)Cn1c(SCC(=O)N2c3ccccc3CC2C)nc2ccccc21` (configuration not stated) was tested, and the activation was inactive: -2%. For `O=P1(N(CCCl)CCCl)OCCC2CCCCN21` (configuration not stated), the activation was inactive: -1.8%. With `O=C(c1ccc(Cl)cc1)N1CCn2c1nc1ccccc12` the activation was inactive: -2.19%. With `O=C(Cn1cnc2c(NCc3ccccc3)ncnc21)NCc1ccc2[nH]ccc2c1` the activation was inactive: -0.68%. For `Cc1ccc(CN2C(=O)c3ccccc3NC23CCN(Cc2ccccc2)CC3)cc1`, the activation was inactive: 2.58%. `CCCS(=O)(=O)N1CCn2c(nc3ccccc32)C1` was tested, and the activation was inactive: -0.63%. In the case of `CC(=O)NC(C)c1nc2ccccc2n1CC(=O)N1C(C)CCCC1C` (configuration not stated), the activation is reported as inactive: -3.13%. With `O=C(Nc1nc2ccccc2n1CCN1CCCCC1)c1ccco1` the activation was inactive: 0.22%. With `O=C(Cn1c(-c2cscn2)nc2ccccc21)Nc1ccccc1F` the activation was inactive: -2.68%. In the case of `CCC(=O)Nc1cccc(C(=O)/C=C/c2cc(Br)ccc2OC)c1`, the activation is reported as inactive: -0.26%. For `O=S(=O)(c1ccccc1)c1nnn2c1nc(NC1CCN(Cc3ccccc3)CC1)c1ccccc12`, the activation was inactive: -0.99%. In the case of `COc1ccccc1C(=O)Nc1ccc2c(c1)nc1n2CCN(C2CCCCC2)C1`, the activation is reported as inactive: -2.56%. `O=C(Cn1cnc2c(NCc3ccccc3)ncnc21)N1CCN(c2ccccn2)CC1` was tested, and the activation was inactive: -2.95%. For `O=C(Nc1nc2ccccc2n1CCN1CCCCC1)C1CCCCC1`, the activation was inactive: -2.71%. With `CC1Cc2ccccc2N1C(=O)Cn1cnc2c1c(=O)n(C)c(=O)n2C` (configuration not stated) the activation was inactive: -2.33%. With `CC(NC(=O)CCNC(=O)N1CCn2c1nc1ccccc12)c1ccccc1` (configuration not stated) the activation was inactive: -1.56%. In the case of `Cc1ccc(-c2csc(NCCn3c(C(F)(F)F)nc4ccccc43)n2)cc1`, the activation is reported as inactive: -0.03%. In the case of `Cn1c(=O)c2c(nc(CN3CCN(C(=O)c4ccco4)CC3)n2CC(N)=O)n(C)c1=O`, the activation is reported as inactive: -0.69%. With `CC(O)CNc1nc2ccccc2n1CC(=O)NCCc1ccc(Cl)cc1` (configuration not stated) the activation was inactive: -1.47%. In the case of `O=C(NC1CCS(=O)(=O)C1)NP(=S)(Oc1ccccc1)Oc1ccccc1` (configuration not stated), the activation is reported as inactive: 1.65%. `COc1cccc(NC(=O)[C@H](C)NC(=O)N2CCn3c2nc2ccccc23)c1` was tested, and the activation was inactive: -2.74%. For `CCNC(=S)/N=C(\N)N[N+](=O)[O-]`, the activation was inactive: -1.19%. For `COc1cc(/C=N/NC(=O)Cn2cnc3c2c(=O)n(C)c(=O)n3C)ccc1O`, the activation was inactive: -0.18%. `CCSc1nc2ccccc2n1CC(=O)N1CCOCC1` was tested, and the activation was inactive: 0.48%. In the case of `Cc1nc2ccccc2n1C1CC(=O)N(Cc2ccccc2)C1=O` (configuration not stated), the activation is reported as inactive: 2.17%. In the case of `CC(c1ccccc1)N1CCn2c(nc3cc(NS(C)(=O)=O)ccc32)C1` (configuration not stated), the activation is reported as inactive: -3.41%. With `S=C(Nc1ccccc1)N1CCn2c1nc1ccccc12` the activation was inactive: -1.65%. In the case of `c1ccc(CN2CCN(CCN3CCn4c3nc3ccccc34)CC2)cc1`, the activation is reported as inactive: -1.52%. In the case of `O=C(Cn1c(-c2ccco2)nc2ccccc21)N1CCCCC1`, the activation is reported as inactive: -1.61%. For `Cn1c(=O)c2ncn(CC(=O)Nc3ccc(N4CCOCC4)cc3)c2n(C)c1=O`, the activation was inactive: 0.44%. In the case of `CCOC(=O)C1CCCN(C(=O)Cn2cnc3c2c(=O)n(C)c(=O)n3C)C1` (configuration not stated), the activation is reported as inactive: -1.3%. `O=C(C1CCCN1S(=O)(=O)c1cccc2cccnc12)N1CCn2c1nc1ccccc12` (configuration not stated) was tested, and the activation was inactive: 3.32%. In the case of `Cc1ccc(Cn2c(=O)c3c(nc4n3CCN4Cc3ccco3)n(C)c2=O)cc1`, the activation is reported as inactive: -0.09%. With `Cc1nc2cc(C(F)(F)F)ccc2n1CCNc1nc(-c2cc(Cl)c(N)c(Cl)c2)cs1` the activation was inactive: -0.99%. With `CC(C)(C)C(=O)N1CCn2c1nc1ccccc12` the activation was inactive: -3.12%.
